Literature values, collected in patent US20160367500A1 (FERTILIFY INC., priority 2013, published 2016).

## vitamin D
Health Canada suggested daily intake levels for females aged 19-50
  Tolerable upper intake level: 4,000 IU
humans, Health Canada Nutrition Tables (2013)
  tolerable upper limit of intake: 4000 IU, per day
